ChEMBL document CHEMBL5346958 (J Med Chem, 2023)

Organism: Homo sapiens
Test: Selectivity ratio of IC50 for AKR1C2 (unknown origin) to IC50 for AKR1C3 (unknown origin)

SMILES | Ratio IC50
Cc1ccc(CNC(=O)c2cc(/C=C/C(=O)O)cc(-c3ccc(Br)cc3)c2)cc1 | 277
Cc1ccc(CNC(=O)c2cc(/C=C/C(=O)O)cc(-c3ccc4c(c3)OCO4)c2)cc1 | 327
